Our source for the Ki values is publication PMC10641813, “4-(3-Phenyl-4-(3,4,5-trimethoxybenzoyl)-1H-pyrrol-1-yl)benzenesulfonamide, a Novel Carbonic Anhydrase and Wnt/β-Catenin Signaling Pathway Dual-Targeting Inhibitor with Potent Activity against Multidrug Resistant Cancer Cells” (Journal of Medicinal Chemistry, 2023).

The chains behind the UniProt entries cited, without tags or fusion partners. Where a name states a change or a piece, a line headed by the entry shows the natural chain unless it says otherwise.
UniProt P00915: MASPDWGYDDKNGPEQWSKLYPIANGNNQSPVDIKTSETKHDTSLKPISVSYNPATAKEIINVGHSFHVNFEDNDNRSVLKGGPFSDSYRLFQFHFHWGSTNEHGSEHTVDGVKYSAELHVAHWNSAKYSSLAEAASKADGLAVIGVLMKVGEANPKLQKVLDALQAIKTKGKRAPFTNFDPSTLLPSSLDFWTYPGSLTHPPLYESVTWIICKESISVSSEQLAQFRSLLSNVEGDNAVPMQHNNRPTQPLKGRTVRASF

Experiment [1] addresses T1, hCA I (Homo sapiens, UniProt P00915).
T1 construct: made in house
Description: Stopped flow CO2 hydrase assay, hCA I. The format is biochemical. As to conditions: stopped flow technique, mean from three assays.

The target of experiment [2] is T2, hCA II (Homo sapiens, UniProt P00918).
T2 construct: made in house
Description: Stopped flow CO2 hydrase assay, hCA II. It counts as biochemical. As to conditions: stopped flow technique, mean from three assays.

pKi: −log10 of the molar value. “And” between values parts separate entries of the source, which are not always exact repeats. Identical values can stand only once.

Regarding “4-(3-(3,4,5-trimethoxybenzoyl)-1H-pyrrol-1-yl)benzenesulfonamide [Compound 11]”, in experiment [1], the negative logarithm of the Ki (pKi) (commonly the Ki on a negative log10 scale, so that one unit is a factor of ten) was 7.02.
“4-(3-Benzoyl-1H-indol-1-yl)benzenesulfonamide [Compound 18]”: the pKi in experiment [1] is 6.48; in experiment [2], > 7.30 and 7.38.
For “4-(3-Benzoyl-1H-pyrrol-1-yl)benzenesulfonamide [Compound 10]”, the negative logarithm of the Ki (pKi) was 7.14 in experiment [1] and 7.24 in experiment [2].
The like results for “4-(3-Benzoyl-4-phenyl-1H-pyrrol-1-yl)benzenesulfonamide [Compound 14]” were, in that order, 6.68 and 7.14.
Turning to “4-(3-Phenyl-4-(3,4,5-trimethoxybenzoyl)-1H-pyrrol-1-yl)benzenesulfonamide [Compound 15]”, the pKi in experiment [1] was 6.57; in experiment [2], > 7.30 and 7.47.
